Results reported in patent US20090170801A1 (Beijing Century Biocom Pharmaceutical Technology Co. Ltd., priority 2006, published 2009).

System: decapitated mice
Assay: Breathing time, breathing frequency, brain index and brain water content in decapitated mice
Type: in vivo, ICR mice
Conditions: 2 mg/kg tail i.v.
Procedure: ICR mice (equally divided between male and female) were divided randomly in a blank control group, a positive control group, and three kelp fucoidan sample groups. […] The positive control group was administrated nimodipine (2 mg/kg) by tail intravenous injection. The model group was administrated normal salt. At 15 minutes after administration, the mice were decapitated by a pair of scissors. The mouth breathing time, breathing frequency and brain water content were recorded and compared with other groups. Whole brains were collected. After the wet weight was obtained, they were dried in an oven at 100° C. for 24 hours. The average value was taken to calculate brain water content: brain water content (%)=[…]. Brain index: brain index=brain wet weight (g)/body weight (g)×100%.

[1] = decapitated 15 min after administration

**Q.** With `COCCOC(=O)C1=C(C)NC(C)=C(C(=O)OC(C)C)C1c1cccc([N+](=O)[O-])c1` (stereo not drawn) [Nimodipine, nimodipine] as the molecule, how does the Breathing frequency [1] read?
**A.** Its Breathing frequency is 17.0 ± 3.2 times.

**Q.** And the Breathing time [1]?
**A.** The Breathing time was 23.8 ± 3.2 s.

**Q.** And the Brain index (brain wet weight/body weight)?
**A.** The Brain index was 1.40 ± 0.14 %.
